In PMC6087491 (Bioorganic & medicinal chemistry, 2018):

Columns and labels:
oral keratinocyte (OK) = conditions: OK normal human cells, concentration higher than 100 μM
[1] = tested on: gingival fibroblast (HGF); conditions: HGF normal human cells, concentration higher than 100 μM

COc1cc(/C=C/c2ccc(OC(=O)C(C)(CO)CO)cc2)cc(OC)c1 [Compound 12, 4-(3,5-Dimethoxystyryl)phenyl-3-hydroxy-2-(hydroxymethyl)-2-methylpropanoate]
effect on cell viability (oral keratinocyte (OK)): No significant effects on cell viability
effect on cell viability [1]: No significant effects on cell viability
